# Reference: ChEMBL document CHEMBL1130264 (J Med Chem, 1997)
# Species: Bos taurus
# Test: Ability to stimulate catechloamine release in bovine adrenal chromaffin cells
smiles,measurement,value
CC(=O)C1=CCCC2CCC1N2 (stereo unspecified),EC50,2000 nM
